Literature values, collected in patent US20090275546A1, “Diagnostic tests and personalized treatment regimes for cancer stem cells” (Istituto Superiore di Sanita, priority 2008, published 2009).

By UniProt entry, the sequences of proteins in these tests, tags left out. Where a name states a change or a piece, a line headed by the entry shows the natural chain unless it says otherwise.
UniProt P49841: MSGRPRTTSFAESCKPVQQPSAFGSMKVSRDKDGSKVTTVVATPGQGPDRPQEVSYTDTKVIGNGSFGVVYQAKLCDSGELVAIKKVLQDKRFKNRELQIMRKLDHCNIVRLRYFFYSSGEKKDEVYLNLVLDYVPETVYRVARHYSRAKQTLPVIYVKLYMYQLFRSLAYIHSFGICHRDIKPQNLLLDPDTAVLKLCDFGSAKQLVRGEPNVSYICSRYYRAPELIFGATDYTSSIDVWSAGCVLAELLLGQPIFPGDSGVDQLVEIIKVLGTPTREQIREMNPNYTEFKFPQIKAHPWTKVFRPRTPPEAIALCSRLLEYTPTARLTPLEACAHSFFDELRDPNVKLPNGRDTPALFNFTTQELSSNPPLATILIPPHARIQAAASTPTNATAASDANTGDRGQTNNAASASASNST

Biological target: GSK-3b (glycogen synthase kinase 3b) (Homo sapiens, UniProt P49841)
Details: cited from earlier work

For Indirubin-3′-monoxime, the IC50 is listed as 0.022 µM.
